# In patent US10071998B2, “Iminothiadiazine dioxides bearing an amine-linked substituent as BACE inhibitors, compositions, and their use” (Merck Sharp & Dohme Corp., priority 2015, dated 2018):
# Protein sequences, listed by entry. Tags and fused reporters are not part of them. Residues count along the entry.
# UniProt Q9Y5Z0, 63-473 limits assumed: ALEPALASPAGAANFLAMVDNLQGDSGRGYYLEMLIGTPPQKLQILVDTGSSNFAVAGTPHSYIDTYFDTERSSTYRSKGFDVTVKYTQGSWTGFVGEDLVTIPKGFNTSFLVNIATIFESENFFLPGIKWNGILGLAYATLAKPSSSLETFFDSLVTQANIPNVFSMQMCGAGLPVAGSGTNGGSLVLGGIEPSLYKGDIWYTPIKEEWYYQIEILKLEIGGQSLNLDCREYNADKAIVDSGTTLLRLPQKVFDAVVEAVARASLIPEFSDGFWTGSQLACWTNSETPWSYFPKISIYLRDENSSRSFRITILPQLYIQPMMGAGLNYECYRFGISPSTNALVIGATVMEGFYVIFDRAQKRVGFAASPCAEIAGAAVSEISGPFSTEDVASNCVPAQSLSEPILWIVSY
# UniProt P56817, 75-416 limits assumed: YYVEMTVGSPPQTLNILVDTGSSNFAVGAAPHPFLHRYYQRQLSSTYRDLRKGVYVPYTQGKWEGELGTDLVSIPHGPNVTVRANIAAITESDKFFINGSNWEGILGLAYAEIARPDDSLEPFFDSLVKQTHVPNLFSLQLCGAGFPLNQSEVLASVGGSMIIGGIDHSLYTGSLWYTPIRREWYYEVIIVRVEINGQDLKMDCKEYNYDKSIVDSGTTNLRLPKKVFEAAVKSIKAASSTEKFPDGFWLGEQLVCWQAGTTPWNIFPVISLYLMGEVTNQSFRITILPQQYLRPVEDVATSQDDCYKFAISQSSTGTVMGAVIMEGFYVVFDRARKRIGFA
# Columns and labels:
# [1] = molecular target: purified human autoBACE-2 (Homo sapiens (Human), UniProt Q9Y5Z0); test: BACE-2 Assay (BACE-HTRF assay); conditions: read-out: BACE2 Ki; Table 1; Ki calculated from IC50 with Cheng-Prusoff equation
# Procedure: Inhibitor IC50s, at purified human autoBACE-2 are determined in a time-resolved endpoint proteolysis assay that measures hydrolysis of the QSY7-EISEVNLDAEFC-Eu-amide FRET peptide substrate (BACE-HTRF assay). BACE-mediated hydrolysis of this peptide results in an increase in relative fluorescence (RFU) at 620 nm after excitation with 320 nm light. Inhibitor compounds, prepared at 3× the desired final concentration in 1× BACE assay buffer (20 mM sodium acetate pH 5.0, 10% glycerol, 0.1% Brij-35) supplemented with 7.5% DMSO are pre-incubated with an equal volume of autoBACE-2 enzyme diluted in 1×BACE assay buffer (final enzyme concentration 1 nM) in black 384-well NUNC plates for 30 minutes at 30° C. […] Following laser excitation of sample wells at 320 nm, the fluorescence signal at 620 nm is collected for 400 ms following a 50 μs delay on a RUBYstar HTRF plate reader (BMG Labtechnologies). […] IC50 values are determined by nonlinear regression analysis (sigmoidal dose response, variable slope) of percent inhibition data with minimum and maximum values set to 0 and 100 percent respectively. […] The Ki values are calculated from the IC50 using the Cheng-Prusoff equation.
# [2] = molecular target: Recombinant human soluble BACE-1 catalytic domain (Homo sapiens (Human), UniProt P56817); test: BACE-1 Ki Assay (BACE-1 HTRF FRET Assay); conditions: read-out: BACE1 Ki; Table 1; Ki calculated from IC50 with Cheng-Prusoff equation
# Procedure: Assay 1: BACE-1 Ki Assay (BACE-1 HTRF FRET Assay)
# The compounds of the invention were assessed for their ability to inhibit BACE-1 using the following assay.
# The following reagents were used in this assay. Na^+-Acetate pH 5.0; 1% Brij-35; Glycerol; Dimethyl Sulfoxide (DMSO); Recombinant human soluble BACE-1 catalytic domain (>95% pure); APP Swedish mutant peptide substrate (QSY7-APP^swe-Eu): QSY7-EISEVNLDAEFC-Europium-amide.
# A homogeneous time-resolved FRET assay can be used to determine IC50 values for inhibitors of the soluble human BACE-1 catalytic domain. This assay monitors the increase of 620 nm fluorescence that resulted from BACE-1 cleavage of an APPswedish APP^swe mutant peptide FRET substrate (QSY7-EISEVNLDAEFC-Europium-amide). […] In the absence of enzyme activity, 620 nm fluorescence is low in the assay and increased linearly over 3 hours in the presence of uninhibited BACE-1 enzyme. Inhibition of BACE-1 cleavage of the QSY7-APP^swe-Eu substrate by inhibitors is manifested as a suppression of 620 nm fluorescence.
# Varying concentrations of inhibitors at 3× the final desired concentration in a volume of 10 ul are preincubated with purified human BACE-1 catalytic domain (3 nM in 10 μl) for 30 minutes at 30° C. in reaction buffer containing 20 mM Na-Acetate pH 5.0, 10% glycerol, 0.1% Brij-35 and 7.5% DSMO. […] The example compounds of the invention were measured in this assay.
smiles,measurement,setting,value
COc1cnc2c(Nc3cc([C@]4(C)CS(=O)(=O)N(C)C(=N)N4)c(F)cn3)nccc2n1,Ki,[1],6.9 nM
same,Ki,[2],19.3 nM
